Data published in patent publication US12116343B2, “Inhibitors of APOL1 and methods of using same” (Vertex Pharmaceuticals Incorporated, priority 2020, dated 2024).

Protein sequences, listed by entry. Tags and fused reporters are not part of them. Residues count along the entry.
UniProt O14791, 28-398 S342G/I384M limits assumed: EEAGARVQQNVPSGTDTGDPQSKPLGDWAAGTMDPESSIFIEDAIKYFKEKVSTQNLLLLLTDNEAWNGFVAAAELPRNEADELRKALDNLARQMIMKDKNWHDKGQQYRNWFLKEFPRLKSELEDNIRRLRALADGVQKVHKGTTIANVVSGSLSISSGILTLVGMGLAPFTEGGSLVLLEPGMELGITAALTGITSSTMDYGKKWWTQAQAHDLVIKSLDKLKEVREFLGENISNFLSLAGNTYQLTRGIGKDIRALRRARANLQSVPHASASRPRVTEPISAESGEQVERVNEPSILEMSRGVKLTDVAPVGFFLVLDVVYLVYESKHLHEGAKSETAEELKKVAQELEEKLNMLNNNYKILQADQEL

Target: G1 APOL1 (Homo sapiens, UniProt O14791, I384M/S342G)
Assay: Acute APOL1 Thallium Assay with inducible stable clones of HEK 293 cells
Conditions: read-out: Thallium Assay (IC50); HEK 293 T-Rex cells expressing G1 APOL1
From the text: Acute APOL1 Thallium Assay with Inducible Stable Clones of HEK 293 Cells
Apolipoprotein L1 (APOL1) proteins form potassium-permeable cation pores in the plasma membrane. APOL1 risk variants (G1 and G2) induce greater potassium flux than G0 in HEK293 cells. This assay exploits the permeability of thallium (Tl+) through ligand-gated potassium channels. The dye produces a bright fluorescent signal upon binding to Tl+ conducted through potassium channels. The intensity of the Tl+ signal is proportional to the number of potassium channels in the open state. Therefore, it provides a functional indication of the potassium channel activities. During the initial dye-loading step, the Tl+ indicator dye as an acetoxymethyl (AM) ester enters the cells through passive diffusion. […] The increase of fluorescence in the assay represents the influx of Tl+ into the cell specifically through the potassium channel (i.e. through APOL1 pores), providing a functional measurement of potassium channel/pore activity. […]
Preparation of Cell Assay Plates • Culture medium is removed from the x cm^2 T-flask by aspiration. • The cell monolayer is rinsed with PBS 1× at room temperature. […] Cell suspension is then transferred to a 50 mL Falcon polypropylene tube. • Cells are then counted using a Biorad TC10 cell counter and the required amount of cells are centrifuged at 1200 RPM for 5 minutes. […]

CC(CO)(CO)NC(=O)[C@H]1C[C@@H](c2c(-c3ccc(F)cc3)[nH]c3c(F)cc(F)cc32)C1
IC50: 250 to 1000 nM
